In patent publication US6890947B2, “Indolyl derivatives” (Hoffmann-La Roche Inc., priority 2002, dated 2005):

Key:
human PPARα [1] = target: T1, human PPARα (Homo sapiens, UniProt Q07869); assay: PPARα radioligand binding assay (GST-PPARα-LBD fusion protein); parameters: made in house; host or cells: E. coli BL21(pLysS)
T1 sequence (Q07869 167-468 limits assumed): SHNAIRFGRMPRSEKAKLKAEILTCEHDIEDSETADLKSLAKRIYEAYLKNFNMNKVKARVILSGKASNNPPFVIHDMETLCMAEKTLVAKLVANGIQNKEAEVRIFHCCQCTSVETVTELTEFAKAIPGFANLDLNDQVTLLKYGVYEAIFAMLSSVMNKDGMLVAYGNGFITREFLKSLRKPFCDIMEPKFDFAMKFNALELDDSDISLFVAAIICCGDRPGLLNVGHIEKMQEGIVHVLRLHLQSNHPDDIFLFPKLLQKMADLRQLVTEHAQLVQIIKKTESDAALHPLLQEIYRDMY

human PPARα [2] = target: T1, human PPARα; assay: Luciferase transcriptional reporter gene assay, pFA-PPARα-LBD in BHK21 cells; assay type: cell-based; settings: Gal4-PPARα-LBD

## CN(CCOc1ccc(CC2SC(=O)NC2=O)cc1)c1ccccn1 (centres unmarked) [Rosiglitazone, reference compound]
Human PPARα [1]
  PPARα IC50: inactive
Human PPARα [2]
  PPARα EC50: inactive
